Source: ChEMBL document CHEMBL1145560, “Use of receptor chimeras to identify small molecules with high affinity for the dynorphin A binding domain of the kappa opioid receptor” (Bioorg Med Chem Lett, 2008)

The chains behind the UniProt entries cited, without tags or fusion partners. Where a name states a change or a piece, a line headed by the entry shows the natural chain unless it says otherwise.
UniProt P41143, whole entry, looked up: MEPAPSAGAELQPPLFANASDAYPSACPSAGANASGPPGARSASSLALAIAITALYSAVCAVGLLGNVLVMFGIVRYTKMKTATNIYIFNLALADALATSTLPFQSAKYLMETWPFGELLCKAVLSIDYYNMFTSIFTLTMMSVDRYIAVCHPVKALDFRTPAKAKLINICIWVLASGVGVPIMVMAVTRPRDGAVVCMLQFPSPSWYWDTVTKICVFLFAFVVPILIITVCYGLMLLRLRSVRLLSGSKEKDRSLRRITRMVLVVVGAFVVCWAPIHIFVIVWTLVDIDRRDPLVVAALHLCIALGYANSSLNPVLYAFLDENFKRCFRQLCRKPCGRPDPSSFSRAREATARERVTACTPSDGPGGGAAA
UniProt P41145: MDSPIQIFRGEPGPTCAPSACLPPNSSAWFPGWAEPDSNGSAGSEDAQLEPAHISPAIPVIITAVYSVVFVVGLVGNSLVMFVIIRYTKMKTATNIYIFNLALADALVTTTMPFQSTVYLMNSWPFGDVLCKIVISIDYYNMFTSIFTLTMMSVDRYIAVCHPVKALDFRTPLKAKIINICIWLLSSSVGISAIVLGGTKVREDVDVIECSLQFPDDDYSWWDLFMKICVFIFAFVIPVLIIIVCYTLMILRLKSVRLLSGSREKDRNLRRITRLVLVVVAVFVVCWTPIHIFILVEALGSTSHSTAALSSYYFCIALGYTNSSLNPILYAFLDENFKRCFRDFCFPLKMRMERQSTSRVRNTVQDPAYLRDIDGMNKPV
UniProt P35372, whole entry, looked up: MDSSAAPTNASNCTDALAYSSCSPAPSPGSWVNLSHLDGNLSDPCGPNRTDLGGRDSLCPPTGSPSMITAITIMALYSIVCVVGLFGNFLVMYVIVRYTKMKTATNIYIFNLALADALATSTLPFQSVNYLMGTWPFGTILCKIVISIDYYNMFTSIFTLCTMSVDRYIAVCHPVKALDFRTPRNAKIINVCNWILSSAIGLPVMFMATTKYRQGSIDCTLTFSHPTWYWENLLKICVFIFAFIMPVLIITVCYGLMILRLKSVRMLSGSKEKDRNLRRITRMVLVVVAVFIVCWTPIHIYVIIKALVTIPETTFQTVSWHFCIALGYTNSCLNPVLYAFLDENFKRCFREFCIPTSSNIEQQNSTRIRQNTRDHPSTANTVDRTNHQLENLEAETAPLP

Experiments:
[1] = Displacement of [3H]diprenorphine from human kappa/mu opioid chimera 4 receptor
[2] = Displacement of [3H]diprenorphine from human kappa/mu opioid chimera 3 receptor
[3] = target: Delta-type opioid receptor (Homo sapiens, UniProt P41143); test: Displacement of [3H]diprenorphine from human delta opioid receptor expressed in CHO-K1 cells
[4] = target: T1, Kappa-type opioid receptor (Homo sapiens, UniProt P41145); test: Displacement of [3H]diprenorphine from human kappa opioid receptor expressed in CHO-K1 cells
[5] = target: T1, Kappa-type opioid receptor; test: Agonist activity at human kappa opioid receptor transfected in CHO cells by [35S]GTP-gamma-S binding assay
Mu-type opioid receptor = Mu-type opioid receptor (Homo sapiens, UniProt P35372); conditions: cho-k1

SMILES	Ki [1] [µM]	Ki [2] [µM]	Ki [3] [µM]	Ki [4] [µM]	EC50 [5] [µM]	Ki (Mu-type opioid receptor) [µM]
CN(C(=O)Cc1ccc(Cl)c(Cl)c1)[C@H](CN1CCCC1)c1ccccc1	0.001	0.014				
CN(C(=O)Cc1ccc2c(c1)OCO2)[C@H](CN1CCCC1)c1ccccc1	0.068	0.22	0.58	0.0007	0.00043	0.45
COc1ccc(CC(=O)N(C)[C@H](CN2CCCC2)c2ccccc2)cc1OC	0.12	0.3	0.5		0.006	> 1
